{
  "source": "patent US10385089B2",
  "about": "“Thionucleoside derivative or salt thereof, and pharmaceutical composition” (FUJIFILM Corporation, priority 2014, dated 2019)",
  "test_system": "gemcitabine-resistant strain of pancreatic cancer cell line Capan-1 (ATCC Number: HTB-79)",
  "test": "Gemcitabine-resistant cell growth inhibition test (CellTiter Glo, total cellular ATP)",
  "settings": "read-out: Growth inhibitory activity IC50 (μmol/L)",
  "note": "Where two headings read alike, the source gives them in different places.",
  "data": [
    {"compound": "CCC(=O)SCCOP(=O)(OCCSC(=O)CC)OC[C@H]1S[C@@H](n2ccc(N)nc2=O)[C@@H](F)[C@@H]1O", "note": "[Example 9-2-1, ((2R,3S,4S,5R)-5-(4-amino-2-oxopyrimidin-1(2H)-yl)-4-fluoro-3-hydroxytetrahydrothiophen-2-yl)methyl bis(S-propionyl-2-mercaptoethan-1-yl) phosphate]", "values": [
      {"measurement": "IC50", "setting": "Homo sapiens, CAPAN-1, 72 h", "result": "2 to 5", "unit": "µmol/L"}
    ]},
    {"compound": "CC(C)(C)C(=O)OCOP(=O)(OCOC(=O)C(C)(C)C)OC[C@H]1S[C@@H](n2ccc(N)nc2=O)[C@@H](F)[C@@H]1O", "note": "[Example 11-2-2, ((2R,3S,4S,5R)-5-(4-amino-2-oxopyrimidin-1(2H)-yl)-4-fluoro-3-hydroxytetrahydrothiophen-2-yl)methyl bis(pivaloyloxymethyl) phosphate]", "values": [
      {"measurement": "IC50", "setting": "Homo sapiens, CAPAN-1, 72 h", "result": "2 to 5", "unit": "µmol/L"}
    ]},
    {"compound": "(2S)-benzyl 2-(((RS)-(((2R,3S,4S,5R)-5-(4-amino- 2-oxopyrimidin-1(2H)-yl)-4-fluoro- 3-hydroxytetrahydrothiophen-2-yl) methoxy)(2,4-dichlorophenoxy) phosphoryl)amino)propanoale [Example 6-2-4]", "values": [
      {"measurement": "IC50", "result": "5 to 15", "unit": "µmol/L"}
    ]},
    {"compound": "(2S)-methyl 2-(((RS)-(((2R,3S,4S,5R)-5-(4-amino- 2-oxopyrimidin-1(2H)-yl)-4-fluoro-3- hydroxytetrahydrothiophen-2-yl) methoxy)(p-tolyloxy)phosphoryl)amino) propanoate [Example 5-2-7]", "values": [
      {"measurement": "IC50", "result": "5 to 15", "unit": "µmol/L"}
    ]}
  ]
}
